Assay results taken from ChEMBL document CHEMBL1123584, “Xanthine functionalized congeners as potent ligands at A2-adenosine receptors” (J Med Chem, 1987).

Sequences of proteins named here, by UniProt entry; tags and fusion partners are left off.
UniProt P25099, whole entry: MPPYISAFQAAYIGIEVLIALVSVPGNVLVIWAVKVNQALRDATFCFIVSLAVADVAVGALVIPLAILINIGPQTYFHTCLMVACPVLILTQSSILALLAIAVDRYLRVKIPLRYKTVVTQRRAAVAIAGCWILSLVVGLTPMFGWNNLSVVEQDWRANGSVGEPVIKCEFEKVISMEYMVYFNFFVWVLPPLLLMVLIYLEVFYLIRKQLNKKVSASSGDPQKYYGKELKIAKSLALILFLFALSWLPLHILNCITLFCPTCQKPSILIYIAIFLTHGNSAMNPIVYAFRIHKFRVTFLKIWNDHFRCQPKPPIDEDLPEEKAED

Molecular target: Adenosine receptor A1 (Rattus norvegicus, UniProt P25099)
Type: cell membranes, Cerebral cortex, Membrane

- Ki: 9.4 nM
Compound: CCn1c(=O)c2nc(-c3ccc(OCC(=O)NCCNC(=O)[C@@H](N)CCCCN)cc3)[nH]c2n(CC)c1=O
